# Measurements: PubChem BioAssay AID1224865 (Sanford-Burnham Center for Chemical Genomics, 2016)
# The chains behind the UniProt entries cited, without tags or fusion partners.
# UniProt P41235, whole entry: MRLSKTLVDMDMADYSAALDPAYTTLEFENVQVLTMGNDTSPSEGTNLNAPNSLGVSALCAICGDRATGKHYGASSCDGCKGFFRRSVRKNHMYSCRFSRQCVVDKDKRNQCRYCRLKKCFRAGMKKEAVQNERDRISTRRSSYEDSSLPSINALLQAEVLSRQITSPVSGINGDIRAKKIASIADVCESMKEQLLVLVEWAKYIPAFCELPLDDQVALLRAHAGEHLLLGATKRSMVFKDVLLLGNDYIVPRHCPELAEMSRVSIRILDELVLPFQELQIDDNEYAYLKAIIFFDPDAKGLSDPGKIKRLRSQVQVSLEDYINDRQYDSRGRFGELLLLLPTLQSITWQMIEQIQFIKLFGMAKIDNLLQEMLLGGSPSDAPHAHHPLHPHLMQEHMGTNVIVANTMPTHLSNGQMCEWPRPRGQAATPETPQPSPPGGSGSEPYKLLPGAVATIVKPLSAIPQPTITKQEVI
# The entries are a selection whose mix differs from that of the whole data set. Calls of active or inactive are those of the source. Rule as the data show it: active = activity change above about 30% (passing the limit was not always enough); inactive = the rest.
# Target: Hepatocyte nuclear factor 4-alpha (Homo sapiens) (UniProt P41235)
# Assay: change in binding of human HNF4A to DNA, primary screen, biochemical, fluorescence polarization, FITC-DNA (AID 1224865)
# Settings: 1 h, at 10 µM, active compounds read high
row,Structure (SMILES),activity change
1,CCOC(=O)Nc1ccc([As](=O)(O)O)c(O)c1,inactive: 2.75%
2,O=C(O)C(=O)c1ccc(N(CCCl)CCCl)cc1.c1ccc(Nc2ccccc2)cc1,inactive: -2.6%
3,CP(=O)(Nc1ccccn1)Oc1ccc(Cl)cc1 (configuration not stated),inactive: 4.12%
4,CCC(C)N(CC(C)C)C(=S)SC(NC(C)=O)C(Cl)(Cl)Cl (configuration not stated),inactive: 3.36%
5,CCOC(=O)c1ccc(NP(C)(=O)Oc2ccc(OC)cc2)cc1 (configuration not stated),inactive: -2.02%
6,CCOC(=O)c1ccc(NC(=O)C(C)(CCl)SC)cc1 (configuration not stated),inactive: -3.92%
7,O=[N+]([O-])c1cc([N+](=O)[O-])c(O)c([N+](=O)[O-])c1.c1ccc(Oc2ccncc2)cc1,inactive: -3.33%
8,CSc1ccc(Nc2c([N+](=O)[O-])cc([N+](=O)[O-])cc2[N+](=O)[O-])cc1,inactive: -1.06%
9,CCOP(C)(=S)SCC(=O)NC(C)C(=O)O (configuration not stated),inactive: 1.39%
10,O=C(OC1CN2CCC1CC2)c1cccc([N+](=O)[O-])c1 (configuration not stated),inactive: 2.8%
11,Cc1cc(C)cc(OP(C)(=O)Nc2ccc(SC(F)(F)F)cc2)c1 (configuration not stated),inactive: 0.74%
12,O=C(Nc1ccncc1[N+](=O)[O-])c1ccc([N+](=O)[O-])cc1[N+](=O)[O-],inactive: 1.3%
13,CCc1ccc(OP(C)(=O)N2CCN(c3ccc([N+](=O)[O-])cc3)CC2)cc1 (configuration not stated),inactive: 4.22%
14,O=C(COc1ccccc1)OC1CN2CCC1CC2 (configuration not stated),inactive: 0.78%
15,CP(=O)(NC(=O)Nc1ccccc1)Oc1ccccc1 (configuration not stated),inactive: 0.37%
16,CP(=O)(Oc1ccccc1)OC(c1ccccc1)C(F)(F)F (configuration not stated),inactive: -0.34%
17,COC(=O)C1(C)COP(=O)(N2CCCC2)OC1 (configuration not stated),inactive: 4.23%
18,Cc1ccc(Nc2c([N+](=O)[O-])cc([N+](=O)[O-])cc2[N+](=O)[O-])cc1,inactive: 0.28%
19,Cc1cccc(C)c1OP(C)(=O)Nc1ccc(SC(F)(F)F)cc1 (configuration not stated),inactive: -0.54%
20,CP(=O)(Nc1ccc(SC(F)(F)F)cc1)Oc1ccc(Cl)cc1 (configuration not stated),inactive: -1.06%
21,COP1(=S)c2c(C)nn(CCC#N)c2N=C(c2ccc(F)cc2)N1C (configuration not stated),inactive: -3.37%
22,CC1(CBr)Cn2c(nc3ccccc3c2=O)S1 (configuration not stated),inactive: -2.36%
23,Cc1nc2ccc3ccccc3c2s1.O=[N+]([O-])c1cc([N+](=O)[O-])c(O)c([N+](=O)[O-])c1,inactive: -0.87%
24,CC(C)/C=N\N=C(\N)N[N+](=O)[O-],inactive: 0.03%

row,Structure (SMILES),activity change
1,CN(C(=O)Cc1ccc(Cl)c(Cl)c1)[C@@H]1CCCC[C@H]1N1CCCC1,inactive: -3.81%
2,Cc1ccc(S(=O)(=O)N(CCCN)CCCc2c(C)nc(N)[nH]c2=O)cc1.O=[N+]([O-])c1cc([N+](=O)[O-])c(O)c([N+](=O)[O-])c1,inactive: -3.11%
3,COc1ccccc1CNC(=O)COC(=O)C(O)(c1ccccc1)c1ccccc1,inactive: 0.18%
4,O=[N+]([O-])c1cc([N+](=O)[O-])c(-c2cnn(-c3ccccc3)c2)c([N+](=O)[O-])c1,inactive: 0.42%
5,CC(C)(C)C(=O)NC(Sc1ncccn1)C(Cl)(Cl)Cl (configuration not stated),inactive: 10.6%
6,CN(Cc1cccnc1)C(=O)COc1ccc(Cl)c(Cl)c1.O=[N+]([O-])c1cc([N+](=O)[O-])c(O)c([N+](=O)[O-])c1,inactive: 1.6%
7,O=P1(N(CCCl)CCCl)NCCC(C(F)(F)F)O1 (configuration not stated),inactive: -0.55%
8,Clc1n[nH]nc1-c1nn[nH][15n]1,inactive: 0.31%
9,CN(CCCl)Cc1cc(Cl)c(NC2=NCCN2)c(Cl)c1,inactive: 2.63%
10,CCOP(=O)(Nc1ccc(C)cn1)OCC,inactive: -1.55%
11,CCOP(=O)(NC(=NC(C)c1ccccc1)NC(C)c1ccccc1)OCC (configuration not stated),inactive: -1.47%
12,Nc1ccc(CCCCOc2ccccc2)cc1.O=[N+]([O-])c1cc([N+](=O)[O-])c(O)c([N+](=O)[O-])c1,inactive: 1.88%
13,O=[N+]([O-])c1cc([N+](=O)[O-])c(-n2nnc3ccccc32)c([N+](=O)[O-])c1,inactive: 0.97%
14,O=C(O)C(O)c1ccc(N(CCCl)CCCl)cc1.c1ccncc1 (configuration not stated),inactive: 0.83%
15,O=P1(Nc2ccccn2)COc2ccccc2OC1,inactive: -0.88%
16,CCC1=CC2Cc3nc4ccc(Cl)cc4c(N)c3C(C1)C2 (configuration not stated),inactive: 2.44%
17,COc1ccc(-c2ccccn2)cc1.O=[N+]([O-])c1cc([N+](=O)[O-])c(O)c([N+](=O)[O-])c1,inactive: 2.3%
18,O=P1(Nc2ccc(Br)cn2)COc2ccccc2OC1,inactive: 0.35%
19,NS(=O)(=O)c1cccc(NC(=O)COC(=O)C(O)(c2ccccc2)c2ccccc2)c1,inactive: -4.06%
20,Cc1ccc(OCC(=O)OC2CN3CCC2CC3)cc1 (configuration not stated),inactive: -0.58%
21,O=[As](O)(c1cccs1)c1cccs1,inactive: -0.83%
22,Nc1cccc([As](=O)(O)c2ccccc2)c1,inactive: -0.63%
23,CP(=O)(Nc1ccc(SC(F)(F)F)cc1)Oc1ccccc1 (configuration not stated),inactive: 0.76%
